Columns and labels:
MDA-MB-231 = assay: Cytotoxicity assay (CellTiter 96 AQueous One) in MDA-MB-231; format: cell-based; details: concentrations of up to 0.5 μM
BT-474 xenograft tumors = details: Herceptin 2.9 mg/kg i.v. once per week for 2 weeks
Protocol: Treatments began on day 1. […] All treatments were freshly prepared and given via intravenous tail vein injection. Injections were standardized at 150 μl per 20 g body weight of mice. […] Tumor sizes were recorded three times a week using caliper measurements (length×width2/2) and health of the animals was continuously monitored. Animals were euthanized when tumor volumes exceeded 1000 mm^3. Six weeks after beginning of the treatment, animals were euthanized by CO2 asphyxiation.

MCF-7 = assay: Cytotoxicity assay (CellTiter 96 AQueous One) in MCF-7; format: cell-based; details: concentrations of up to 0.5 μM
[1] = Zeta potential measurement; format: physicochemical; details: without PEG or with the labelled PEG compound (Herceptin conjugate at 0.25 mol %)

Substance | Effects on HER2− cell line (MDA-MB-231) | Tumor result compared to control group (BT-474 xenograft tumors) | NNTRD (number of non-treatment related death) (BT-474 xenograft tumors; Nbegin 6) | NTRD (number of treatment related death) (BT-474 xenograft tumors; Nbegin 6) | Nend (number of animals surviving to end of study) (BT-474 xenograft tumors; Nbegin 6) | Neuthan (number of animals euthanized due to exceeding tumor size limit of 1000 mm^3) (BT-474 xenograft tumors; Nbegin 6) | Effects on HER2− cell line (MCF-7) | Zeta potential of MAP-4/siRNA particle [1]
Herceptin: human IgG1 antibody (Herceptin®) | no effects | significant compared to control group | 0/0/0 | 0/0/0 | 6/6 | 0/0/0 | no effects | –
IgG (Herceptin®) conjugated nitroPBA-PEG: Herceptin conjugated by EDC coupling to on average 1 to 2 nitroPBA-PEG-CO2H | – | – | – | – | – | – | – | remained similar
